Drawing on PubChem BioAssay AID504490 (NMMLSC, 2011), this text covers inhibition for 1 molecule.

Molecules are shown by their SMILES. This is a selection; strong and weak results do not stand in their true shares. The source made the active and inactive calls.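 Rule for the calls: active = inhibition above a set limit, near 3 SD of compounds lacking own fluorescence (cut at about 54% in these data); inactive = the rest.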

The assay deals with beta-arrestin 1 C-terminal peptide binding to AP2 beta2-adaptin appendage (human). The experiment in a line: blockers of arrestin peptide association with AP2 adaptin – biochemical, GPCR trafficking, flow cytometry, primary screen (AID 504490).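 Note: plate controls were DMSO wells for no effect and 5 µM unlabelled arrestin peptide for full effect.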 To be noted: FITC-arrestin peptide / GST-AP2 beads, at 10 µM, hits give high values, AP2 beta2 appendage carries R879A mutation.
The inhibition is the drop in the measured response relative to a control, in per cent. As to `Cc1ccc(OP(=O)(Nc2ccccn2)Oc2ccc(C)cc2)cc1`, the inhibition was inactive: -19.1%.
